Our source for the inhibition values is PubChem BioAssay AID743445 (Broad Institute, 2014).

The chains behind the UniProt entries cited, without tags or fusion partners.
UniProt O96028, whole entry: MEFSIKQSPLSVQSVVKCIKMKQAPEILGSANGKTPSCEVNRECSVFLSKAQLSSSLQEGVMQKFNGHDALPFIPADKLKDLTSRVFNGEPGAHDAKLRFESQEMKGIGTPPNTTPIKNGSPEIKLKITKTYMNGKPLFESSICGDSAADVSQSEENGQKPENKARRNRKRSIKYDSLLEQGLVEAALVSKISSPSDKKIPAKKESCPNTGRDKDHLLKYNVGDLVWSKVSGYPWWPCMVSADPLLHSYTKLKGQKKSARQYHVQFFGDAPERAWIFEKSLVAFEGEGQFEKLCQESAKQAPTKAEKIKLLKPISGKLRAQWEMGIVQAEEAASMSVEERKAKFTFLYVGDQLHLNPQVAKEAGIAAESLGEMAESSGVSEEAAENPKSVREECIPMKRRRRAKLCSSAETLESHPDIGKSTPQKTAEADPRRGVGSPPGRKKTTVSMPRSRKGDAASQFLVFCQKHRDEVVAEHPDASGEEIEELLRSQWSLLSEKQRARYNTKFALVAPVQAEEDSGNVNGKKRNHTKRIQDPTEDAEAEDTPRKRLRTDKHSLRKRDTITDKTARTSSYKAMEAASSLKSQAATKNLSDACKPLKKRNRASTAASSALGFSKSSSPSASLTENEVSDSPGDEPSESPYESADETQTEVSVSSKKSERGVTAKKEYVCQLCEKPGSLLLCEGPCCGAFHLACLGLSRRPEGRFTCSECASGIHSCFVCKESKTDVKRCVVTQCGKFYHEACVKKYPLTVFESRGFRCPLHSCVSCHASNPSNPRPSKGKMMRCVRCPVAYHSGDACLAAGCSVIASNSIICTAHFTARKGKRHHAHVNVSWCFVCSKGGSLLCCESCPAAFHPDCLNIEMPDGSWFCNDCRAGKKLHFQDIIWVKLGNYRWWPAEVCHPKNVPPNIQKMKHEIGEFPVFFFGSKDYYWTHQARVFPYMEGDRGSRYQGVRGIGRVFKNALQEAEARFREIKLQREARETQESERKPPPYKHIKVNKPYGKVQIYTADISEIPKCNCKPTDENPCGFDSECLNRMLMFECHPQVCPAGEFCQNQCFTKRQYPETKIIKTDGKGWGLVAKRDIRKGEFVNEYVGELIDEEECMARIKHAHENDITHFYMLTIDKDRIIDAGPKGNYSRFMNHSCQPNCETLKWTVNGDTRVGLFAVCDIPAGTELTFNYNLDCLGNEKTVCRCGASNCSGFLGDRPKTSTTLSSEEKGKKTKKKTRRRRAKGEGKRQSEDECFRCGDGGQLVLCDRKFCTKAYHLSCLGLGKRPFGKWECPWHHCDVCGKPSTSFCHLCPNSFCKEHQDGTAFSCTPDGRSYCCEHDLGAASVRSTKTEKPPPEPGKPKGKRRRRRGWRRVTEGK

Molecules are shown by their SMILES. The entries are a selection whose mix differs from that of the whole data set. Active and inactive are the calls of the source. Rule as the data show it: active = inhibition above about 50%; inactive = the rest.

As usually defined, the inhibition is the drop in the measured response relative to a control, in per cent.

For this test, the target named is Histone-lysine N-methyltransferase NSD2 (Homo sapiens) (UniProt O96028). The test can be described thus: blockers of NSD2 lysine methylation activity – biochemical, AlphaScreen, single concentration, set 2, primary screen (AID 743445). As to conditions: NSD2 peptide methylation, 120 min, at 12.5 µM, active compounds read high. (In general: Alpha assays give light when donor and acceptor beads are brought close together.)
Take `CCc1ccc(OP(C)(=O)O)cc1`: the inhibition was inactive: -1.69%.

Regarding `CP(=O)(Nc1ccccn1)Oc1ccccc1` (configuration not stated), the inhibition was inactive: -2.79%.

On to `O=[N+]([O-])c1cc([N+](=O)[O-])c(Nc2ccccn2)c([N+](=O)[O-])c1`, for which the inhibition was inactive: 46.9%.

For `Cc1c(NP(C)(=O)Oc2ccc(C(C)C)cc2)c(=O)n(-c2ccccc2)n1C` (configuration not stated), the inhibition was inactive: -4.16%.

`CN(C)CCOC(=O)C(O)(c1ccccc1)C1CCCC1` (configuration not stated): the inhibition was inactive: 1.79%.

As for `COc1ccccc1OP(C)(=O)Nc1ccc(Br)cc1` (configuration not stated), the inhibition was inactive: -4.21%.

Regarding `CP(=O)(OCCOc1ccccc1)OCCOc1ccccc1`, the inhibition was inactive: 0.834%.

For `CP(=O)(Nc1ccc(Cl)cc1Cl)Oc1ccccc1` (configuration not stated), the inhibition was inactive: 31%.

In the case of `COc1ccc(OP(C)(=O)Nc2ccccc2Br)cc1` (configuration not stated), the inhibition is inactive: -3.03%.

Take `COc1ccccc1OP(C)(=O)Nc1ccc(C)c(C)c1` (configuration not stated): the inhibition is inactive: 0.655%.

As to `Cc1cc(C)cc(OP(C)(=O)Nc2cccc(C(F)(F)F)c2)c1` (configuration not stated), the inhibition was inactive: 0.664%.

Regarding `O=C1C(O)=C([N+](=O)[O-])C(=O)C(O)=C1[N+](=O)[O-]`, the inhibition was inactive: 17.2%.

As to `CP(=O)(OC12CC3CC(CC(C3)C1)C2)OC12CC3CC(CC(C3)C1)C2`, the inhibition was inactive: 0.865%.

As for `CCOC(=O)c1ccc(NP(C)(=O)Oc2ccc(Cl)cc2)cc1` (configuration not stated), the inhibition is inactive: -1.16%.

Regarding `CN(C)C(=O)c1c([N+](=O)[O-])cc([N+](=O)[O-])cc1[N+](=O)[O-]`, the inhibition was inactive: 44%.

In the case of `CP(=O)(Nc1ccc(Cl)cc1)Oc1ccc(F)cc1` (configuration not stated), the inhibition was inactive: 0.023%.

`CC(C)(C)c1ccc(OP(C)(=O)O)cc1`: the inhibition was inactive: 2.62%.

Regarding `COc1ccccc1OP(C)(=O)Nc1ccccc1Br` (configuration not stated), the inhibition is inactive: -1.56%.

On to `CP(=O)(Oc1ccccc1)N1CCOC1=O` (configuration not stated), for which the inhibition was inactive: -2.78%.

For the compound `O=C(OCCCN1CCCC1)C(O)(c1ccccc1)C1CCCCC1` (configuration not stated), the inhibition was inactive: 1.85%.

With `COc1ccccc1OP(C)(=O)Nc1c(C)n(C)n(-c2ccccc2)c1=O` (configuration not stated), the inhibition is inactive: 2.49%.

As to `COc1ccc(OP(C)(=O)Nc2ccc(Br)cc2)cc1` (configuration not stated), the inhibition is inactive: -0.863%.

In the case of `O=[N+]([O-])c1cc([N+](=O)[O-])c(C(F)(F)F)c([N+](=O)[O-])c1O`, the inhibition was inactive: 5.05%.

As for `Cc1ccccc1NP(C)(=O)Nc1ccccc1C`, the inhibition is inactive: -0.583%.

For `CP(=O)(Nc1ccc2c(c1)OCCO2)Oc1ccccc1` (configuration not stated), the inhibition is inactive: 0.898%.

Consider `CCOP(C)(=S)SCC(=O)NC(C)(CC)C(=O)O` (configuration not stated), for which the inhibition was inactive: 2.36%.

For `CP(=O)(Nc1ccc(SC(F)(F)F)cc1)Oc1ccc(F)cc1` (configuration not stated), the inhibition is inactive: 0.121%.

Consider `Cc1c(C(c2ccc3c(c2)OCO3)c2c(C)n(C)n(-c3ccccc3)c2=O)c(=O)n(-c2ccccc2)n1C.O=[N+]([O-])c1cc([N+](=O)[O-])c(O)c([N+](=O)[O-])c1`, for which the inhibition is inactive: -14%.

Regarding `Cc1cc(-c2cccc3ccccc23)c(C)cn1.O=[N+]([O-])c1cc([N+](=O)[O-])c(O)c([N+](=O)[O-])c1`, the inhibition was inactive: -5.64%.

For `O=[N+]([O-])c1cc([N+](=O)[O-])c(NCC2CCS(=O)(=O)C2)c([N+](=O)[O-])c1` (configuration not stated), the inhibition is inactive: 17.3%.

In the case of `O=[N+]([O-])c1ccc(OP2(=O)COCCO2)cc1` (configuration not stated), the inhibition was inactive: -2.31%.

For `COc1ccc(NP(C)(=O)Oc2ccccc2OC)cc1` (configuration not stated), the inhibition was inactive: 1.15%.

In the case of `CN(C)CCOC(=O)C(O)(c1ccccc1)C1CCCCC1` (configuration not stated), the inhibition is inactive: 10.1%.

Regarding `COc1ccc(OP(C)(=O)Nc2cccc(Br)c2)cc1` (configuration not stated), the inhibition is inactive: 0.69%.

With `CCCCCOc1ccc(NP(C)(=O)Oc2ccc(Cl)cc2Cl)cc1` (configuration not stated), the inhibition is inactive: -1.25%.

On to `O=[N+]([O-])c1cc([N+](=O)[O-])c(OC2CCCCC2O)c([N+](=O)[O-])c1` (configuration not stated), for which the inhibition is inactive: 1.61%.

In the case of `CP(=O)(Nc1ccccc1)Oc1ccc(F)cc1` (configuration not stated), the inhibition is inactive: 0.53%.

For `CCN(CC)CCCOC(=O)C(O)(c1ccccc1)C1CCCCC1` (configuration not stated), the inhibition is inactive: 5.01%.

Consider `Cc1c([N+](=O)[O-])cc([N+](=O)[O-])c(Br)c1[N+](=O)[O-]`, for which the inhibition was inactive: 0.355%.

With `COc1ccc(OP(C)(=O)Nc2ccc(SC(F)(F)F)cc2)cc1` (configuration not stated), the inhibition was inactive: -1.2%.

As to `CCOC(=O)c1ccc(NP(C)(=O)Oc2ccc(F)cc2)cc1` (configuration not stated), the inhibition is inactive: 1.49%.

For the compound `O=C(OCCN1CCN(CCOCc2ccccc2)CC1)C(O)(c1ccccc1)c1ccccc1`, the inhibition was inactive: 0.82%.

As for `O=C(OC1CN2CCC1CC2)c1ccc([N+](=O)[O-])cc1` (configuration not stated), the inhibition is inactive: 0.856%.

As for `CC(C)c1ccc(OP(C)(=O)Nc2ccc(SC(F)(F)F)cc2)cc1` (configuration not stated), the inhibition is inactive: -0.747%.

Consider `CP(=O)(Nc1ccccc1F)Oc1ccccc1` (configuration not stated), for which the inhibition is inactive: -1.62%.

As to `O=[N+]([O-])c1cc([N+](=O)[O-])c(Nc2ccc(Cl)cc2)c([N+](=O)[O-])c1`, the inhibition was inactive: 12.4%.

Turning to `CP(=O)(Nc1cccc(Br)c1)Oc1ccccc1` (configuration not stated), the inhibition was inactive: -0.746%.

In the case of `Cc1cc(C)cc(OP(C)(=O)Nc2ccccn2)c1` (configuration not stated), the inhibition was inactive: -1.7%.

Take `Cc1ccc(C)c(NP(C)(=O)Oc2ccccc2)c1` (configuration not stated): the inhibition is inactive: -0.351%.

Turning to `Cc1cc(C)cc(OP(C)(=O)Nc2ccc(C)cc2C)c1` (configuration not stated), the inhibition was inactive: -6.98%.

Consider `CCOC(=O)c1ccc(NP(C)(=O)Oc2cc(C)cc(C)c2)cc1` (configuration not stated), for which the inhibition was inactive: 8.27%.

As for `COc1ccccc1OP(C)(=O)Nc1cccc(Br)c1` (configuration not stated), the inhibition was inactive: -2.74%.

With `CC1=NCCc2c1[nH]c1ccccc21.O=[N+]([O-])c1cc([N+](=O)[O-])c(O)c([N+](=O)[O-])c1`, the inhibition is inactive: 2.17%.

For `O=C(O)c1cccc(Nc2c([N+](=O)[O-])cc([N+](=O)[O-])cc2[N+](=O)[O-])c1`, the inhibition is inactive: 0.74%.

On to `CP(=O)(Nc1ccc(SC(F)(F)F)cc1)Oc1ccccc1` (configuration not stated), for which the inhibition is inactive: -1.09%.

As to `CCCOc1ccc(NP(C)(=O)Oc2ccc(Cl)cc2)cc1` (configuration not stated), the inhibition was inactive: -0.912%.

Take `COc1ccc(-c2ccccn2)cc1.O=[N+]([O-])c1cc([N+](=O)[O-])c(O)c([N+](=O)[O-])c1`: the inhibition was inactive: -4.56%.

In the case of `CN1CCCCC1COC(=O)C1(O)c2ccccc2CCc2ccccc21` (configuration not stated), the inhibition is inactive: 2.65%.

`COc1ccccc1OP(C)(=O)Nc1c(C)cccc1C` (configuration not stated): the inhibition is inactive: -1.57%.

In the case of `O=[N+]([O-])c1cc([N+](=O)[O-])c(Nc2nnnn2CCO)c([N+](=O)[O-])c1`, the inhibition is inactive: 8.06%.

With `Cc1nc2ccc3ccccc3c2s1.O=[N+]([O-])c1cc([N+](=O)[O-])c(O)c([N+](=O)[O-])c1`, the inhibition was inactive: 1.04%.

With `O=[N+]([O-])c1cc([N+](=O)[O-])c(-c2cnn(-c3ccccc3)c2)c([N+](=O)[O-])c1`, the inhibition is inactive: 2.06%.

Regarding `CN(Cc1cccnc1)C(=O)COc1ccc(Cl)c(Cl)c1.O=[N+]([O-])c1cc([N+](=O)[O-])c(O)c([N+](=O)[O-])c1`, the inhibition is inactive: -1.11%.

As for `O=[N+]([O-])c1cc([N+](=O)[O-])c(-n2nnc3ccccc32)c([N+](=O)[O-])c1`, the inhibition is inactive: 5.88%.

Turning to `CP(=O)(Nc1ccccn1)Oc1ccc(Cl)cc1` (configuration not stated), the inhibition is inactive: -0.176%.

For the compound `CCOP(C)(=S)SCC(=O)NC(C)C(=O)O` (configuration not stated), the inhibition is inactive: -1.72%.

As to `CCOC(=O)c1ccc(NP(C)(=O)Oc2ccc(OC)cc2)cc1` (configuration not stated), the inhibition was inactive: -0.395%.

For `Cc1cc(C)cc(OP(C)(=O)Nc2ccc(SC(F)(F)F)cc2)c1` (configuration not stated), the inhibition is inactive: -0.685%.

On to `CCc1ccc(OP(C)(=O)N2CCN(c3ccc([N+](=O)[O-])cc3)CC2)cc1` (configuration not stated), for which the inhibition was inactive: 4.84%.

For the compound `CP(=O)(NC(=O)Nc1ccccc1)Oc1ccccc1` (configuration not stated), the inhibition is inactive: 4.58%.

On to `CP(=O)(Oc1ccccc1)OC(c1ccccc1)C(F)(F)F` (configuration not stated), for which the inhibition was inactive: -5.6%.

Consider `CP(=O)(Nc1ccc(SC(F)(F)F)cc1)Oc1ccc(Cl)cc1` (configuration not stated), for which the inhibition is inactive: -1.08%.

For `Cc1ccc(Nc2c([N+](=O)[O-])cc([N+](=O)[O-])cc2[N+](=O)[O-])cc1`, the inhibition was inactive: 26.4%.

`Cc1cccc(C)c1OP(C)(=O)Nc1ccc(SC(F)(F)F)cc1` (configuration not stated): the inhibition is inactive: -1.27%.

Regarding `COc1ccccc1OP(C)(=O)Nc1ccccc1` (configuration not stated), the inhibition was inactive: -0.678%.

Turning to `CP(=O)(Nc1ccccc1Br)Oc1ccccc1` (configuration not stated), the inhibition is inactive: -4.5%.

As for `CP(=S)(Nn1cnnc1)Oc1ccccc1` (configuration not stated), the inhibition was inactive: 0.643%.

Regarding `COc1ccccc1OP(C)(=O)Nc1cc(Cl)ccc1C` (configuration not stated), the inhibition is inactive: -4.79%.

`Cc1cc(C)cc(OP(C)(N)=O)c1` (configuration not stated): the inhibition is inactive: 4.96%.

Take `CCOC(=O)c1ccc(NP(C)(=O)Oc2ccccc2)cc1` (configuration not stated): the inhibition was inactive: -1.45%.

On to `Cc1ccc(NP(C)(=O)Oc2ccccc2)c(C)c1` (configuration not stated), for which the inhibition was inactive: 0.249%.

Turning to `COc1ccccc1OP(C)(=O)Nc1ccc(C)cc1` (configuration not stated), the inhibition was inactive: 1.79%.

Take `Cc1cccc(C)c1OP(C)(N)=O` (configuration not stated): the inhibition is inactive: -1.12%.

For `CC(C)(C)c1ccc(OP(C)(=O)Nc2ccc(SC(F)(F)F)cc2)cc1` (configuration not stated), the inhibition is inactive: -2.04%.

Consider `O=[N+]([O-])c1ccc2c(c1)C=Nc1ccccc1O2`, for which the inhibition is inactive: 7.09%.

As to `COc1ccccc1-c1ccccn1.O=[N+]([O-])c1cc([N+](=O)[O-])c(O)c([N+](=O)[O-])c1`, the inhibition is inactive: 2.02%.

As for `CCN(CC)CCCOC(=O)C(O)(c1ccccc1)c1ccccc1`, the inhibition was inactive: 2.92%.
